# Measured affinities in a library of Ab-14 light chain variants

Data: MIT Lincoln Laboratory AlphaSeq set, Li et al. 2023, doi:10.1038/s41467-023-39022-2, as distributed in FLAb.

Target: peptide PDVDLGDISGINAS, taken from heptad repeat 2 (HR2) of SARS-CoV-2 spike.

Parent: Ab-14, a human scFv built as VH, a (GGGGS)3 linker, VL. Only the CDRs of the light chain vary.
VH: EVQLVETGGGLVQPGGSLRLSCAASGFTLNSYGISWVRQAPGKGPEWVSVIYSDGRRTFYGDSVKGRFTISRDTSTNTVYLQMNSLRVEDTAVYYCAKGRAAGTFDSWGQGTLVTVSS
VL: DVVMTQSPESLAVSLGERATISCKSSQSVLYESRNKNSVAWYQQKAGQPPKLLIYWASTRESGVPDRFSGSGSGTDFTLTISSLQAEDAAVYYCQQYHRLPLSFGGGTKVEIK

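The parent was found by panning a naive human phage display library on the peptide. This is the validation round: designs drawn from the data on random variants, tested in the same kind of assay. Their group label is 14L_GP_Gen (GP: Gaussian process model; Gen: genetic algorithm; a sequence that several methods proposed may carry one label only). AlphaSeq pools MATa yeast showing the antibodies with MATalpha yeast showing the peptide. Binding brings cells together so that they mate, and sequencing counts the barcode pairs among the diploids. Each replicate has its own calibration line, from reference interactions of the BCL2 family. Mating was done six times.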

Variants are written as CDR1, CDR2 and CDR3 of the light chain (limits as in the source). Parent: KSSQSVLYESRNKNSVA, WASTRES, QQYHRLPLS. Scale: log10 of Kd in nM, estimated from mating counts; low values are strong binders. Replicates are averaged; those with no signal do not enter the mean. A sequence measured in both rounds can read differently, since the two assays cover different ranges.

CDR-L1,CDR-L2,CDR-L3,log10 Kd (nM) by replicate,"mean, log10 nM",empty controls
KLDQSELYESRNKNSVA,NASQRES,QQYHRLPLS,-0.16 -0.21 -0.37 -0.47 -0.11 -0.06,-0.23,2/18 (3.68)
KLQQSELYESRNKNSVA,EASQRES,QQYHRLPLS,0.66 2.19 0.78 0.68 0.61 0.76,0.95,0/18
KLSQSDLYESRNANNVA,NASTRES,QQYHRLPLS,-0.12 -0.21 -0.21 -0.26 -0.42 -0.07,-0.21,1/18 (3.06)
KLSQSVLYESRNKNNVA,DASTRED,QQYHRLPLS,-0.44 -0.58 -0.51 -0.76 -0.47 -0.30,-0.51,1/18 (2.32)
KVSQSFDYESRNKNSVA,DASTRES,QQYHRLPLS,-0.21 -0.35 -0.05 -0.23 -0.38 0.50,-0.12,0/18
KLSQSELMESRNKNSVA,SASTRES,QQYHRLPLS,-0.10 -0.20 -0.21 -0.22 -0.27 -0.18,-0.20,6/18 (3.21)
KLSQSHLYESRNSNNVA,DASTRES,QQYHRLPLS,-0.41 -0.46 -0.53 -0.70 -0.78 -0.63,-0.59,2/18 (2.92)
KLPQSELYESRNKNSVA,NASTRCS,QQYHRLPLS,0.05 -0.05 -0.09 -0.37 -0.03 0.25,-0.04,3/18 (2.85)
KVSQSHLYESRNKNSVA,EASTRES,QQYHRLPLS,0.65 0.65 0.55 0.62 0.46 0.73,0.61,2/18 (2.54)
KLSQSVLYESRNKNSVA,GANTRES,QQYHRLPLS,-0.21 -0.14 -0.36 -0.49 -0.27 -0.44,-0.32,1/18 (4.38)
KVSQSVLMESRNKNSVA,NASTRES,QQYHRLPLS,-0.03 0.18 0.54 0.19 0.70 0.40,0.33,0/18
KVSQSVLYESRNKNSVA,NASTRES,QQYHRLPLW,0.29 -0.23 0.31 -0.39 -0.04 0.12,0.01,1/18 (1.08)
KLSQSYLYESRNKNSVA,NASTRLS,QQYHRLPLS,-0.24 -0.43 -0.39 -0.42 -0.38 -0.28,-0.36,2/18 (2.61)
KVSQSNLYESRNKNSVA,NASYRES,QQYHRLPLS,-0.12 -0.25 -0.31 -0.24 -0.19 0.30,-0.13,2/18 (2.12)
KLSQSQLYESRNKNSVA,EASTREV,QQYHRLPLS,0.03 -0.10 -0.05 -0.32 -0.17 -0.20,-0.13,1/18 (2.58)
KMSQSWLYESRNKNSVA,NGSTRES,QQYHRLPLS,1.33 1.51 1.59 2.02 2.00 1.51,1.66,0/18
KISQSVLYEDRNKNNVA,NASQRES,QQYHRLPLS,-0.44 -0.57 -0.74 -0.74 -0.65 -0.59,-0.62,1/18 (3.12)
KLSQSVLMESRNKNSVA,EASTRED,QQYHRLPLS,0.48 0.09 0.08 0.11 -0.13 0.47,0.18,2/18 (2.90)
KLSQSFLYESRNKNSVA,NASTREK,QQYHRLPLS,-0.01 -0.22 -0.08 -0.36 -0.30 -0.01,-0.16,1/18 (2.69)
KLSQSWWYESRNKNSVA,NASTRES,QQYHRLPLS,0.81 0.52 0.31 0.36 0.40 0.68,0.51,2/18 (1.80)
KFSQSQLYESRMKNSVA,NASTRES,QQYHRLPLS,0.39 0.17 0.02 -0.07 0.00 0.13,0.11,5/18 (3.84)
KSPQSVDYESRNKNSVA,EASTRES,QQYHRLPLS,-0.02 -0.10 -0.15 -0.39 0.01 0.06,-0.10,3/18 (2.29)
KVPQSELYESRNKNSVA,EASQRES,QQYHRLPLS,0.28 0.02 0.05 -0.25 0.26 0.18,0.09,0/18
KLSQSQGYESRNKNSVA,QASTRES,QQYHRLPLS,0.12 0.02 -0.28 -0.22 -0.19 0.11,-0.07,0/18
KLQQSQLYESRNKNSVA,SASTRES,QQYHRLPLS,0.41 0.28 0.31 -0.04 0.08 0.22,0.21,1/18 (3.25)
KLSQSVMYESRMKNSVA,NASTRES,QQYHRLPLS,-0.13 -0.46 -0.38 -0.35 -0.51 -0.28,-0.35,1/18 (2.60)
KISQSVLYEDRNKNSVA,NASQRES,QQYHRLPLS,-0.32 -0.11 -0.29 -0.44 -0.50 -0.15,-0.30,2/18 (2.41)
KLSQSVLYESRNKNSVA,EASTRES,QNYHRLPLS,0.07 0.07 -0.12 0.11 -0.15 -0.03,-0.01,1/18 (2.66)
KLSQSELYESRNKNSVA,NASQRES,QDYHRLPLS,0.02 -0.01 -0.17 -0.27 -0.11 0.15,-0.06,2/18 (2.78)
KVEQSELYESRNKNSVA,EASTRES,QQYHRLPLS,0.35 -0.13 -0.04 -0.01 0.10 0.12,0.06,3/18 (2.26)
KISQSVLYESRNKNAVA,NASQRES,QQYHRLPLS,0.26 0.39 0.27 0.03 0.11 0.32,0.23,3/18 (2.72)
KFSQSVLYESRNKNSVA,DGSTRES,QQYHRLPLS,-0.21 -0.16 -0.36 -0.32 -0.21 -0.03,-0.22,0/18
KLSQSVLYESRNWNSVA,NASQRES,QQYHRLPLS,-0.03 0.20 0.01 -0.15 -0.23 -0.12,-0.05,0/18
KLQQSVLYQSRNKNSVA,GASTRES,QQYHRLPLS,-0.08 0.00 -0.18 -0.26 -0.22 -0.15,-0.15,2/18 (3.33)
KLPQSVLYESRNKNSVA,NASQRES,QDYHRLPLS,-0.17 0.01 -0.29 -0.37 -0.06 0.13,-0.12,4/18 (3.23)

For reference, 4 entries of the list once more:

{"CDR-L1": "KLSQSVLYESRNKNSVA", "CDR-L2": "EASTRES", "CDR-L3": "QNYHRLPLS", "log10 Kd (nM) by replicate": "0.07 0.07 -0.12 0.11 -0.15 -0.03", "mean, log10 nM": "-0.01", "empty controls": "1/18 (2.66)"}
{"CDR-L1": "KMSQSWLYESRNKNSVA", "CDR-L2": "NGSTRES", "CDR-L3": "QQYHRLPLS", "log10 Kd (nM) by replicate": "1.33 1.51 1.59 2.02 2.00 1.51", "mean, log10 nM": "1.66", "empty controls": "0/18"}
{"CDR-L1": "KLSQSDLYESRNANNVA", "CDR-L2": "NASTRES", "CDR-L3": "QQYHRLPLS", "log10 Kd (nM) by replicate": "-0.12 -0.21 -0.21 -0.26 -0.42 -0.07", "mean, log10 nM": "-0.21", "empty controls": "1/18 (3.06)"}
{"CDR-L1": "KLSQSVLYESRNKNSVA", "CDR-L2": "GANTRES", "CDR-L3": "QQYHRLPLS", "log10 Kd (nM) by replicate": "-0.21 -0.14 -0.36 -0.49 -0.27 -0.44", "mean, log10 nM": "-0.32", "empty controls": "1/18 (4.38)"}

The authors' rule: three or more of the six replicates give a measured affinity, fewer mean a poor binder. Of ten entries with the parent sequence, four were seen in most replicates (averages 0.34 to 2.37), three in one and three in none, so single entries are noisy. Three control strains display no target. For all light chain designs, 4% of the pairings with them gave a signal, with a median of 2.64 and one signal in twenty below 1.59, so weak values seen in few replicates may be background. The control count says in how many pairings with the empty strains this scFv gave a signal, with their mean in brackets.